Laboratory results from patent US7445790B2, “External preparations for skin” (Shiseido Company, Ltd., priority 2002, dated 2008).

Assay: Solubility of a slightly soluble triazine-type ultraviolet absorbent in oil components at 0° C.
Type: physicochemical
Settings: concentration (mass percentage) in a saturated solution at 0° C. of 2,4-bis{[4-(2-ethylhexyloxy)-2-hydroxy]phenyl}-6-(4-methoxyphenyl)1,3,5-triazine in the oil component
Description: (§1) For the slightly soluble ultraviolet absorbent, a triazine-type ultraviolet absorbent 2,4-bis{[4-(2-ethylhexyloxy)-2-hydroxy]phenyl}-6-(4-methoxyphenyl)1,3,5-triazine was used.
This oil component is a mixture of alkyl benzoates having 12-15 carbon atoms.
as §1

- Solubility (Table 1-4): 4%
- Solubility (Table 2-1): 4%
Substance: Pentaerythrite tetra (2-ethylhexanoate/paramethoxycinnamate)
